Assay results from patent publication US4263427A, “Monensin urethane derivatives” (priority 1979, dated 1981).
Values joined by “and” are separate entries in the source; they are usually repeats but may differ in a detail not shown here. Equal values may be shown once. Where a name gives a salt, the structure may show the parent alone. Read-outs that look alike come from different tables or passages of the source.

Test system: rumen fluid

Row | SMILES | Relative levels of propionate (C3) to acetate + butyrate (C2 + C4) | Relative levels of propionate (C3) to acetate + butyrate (C2 + C4) (2-phenethyl urethane(natural product))
1 | CCC1(C2OC(C3OC(O)(COC(=O)NCCc4ccccc4)C(C)CC3C)CC2C)CCC(C2(C)CCC3(CC(O)C(C)C(C(C)C(OC)C(C)C(=O)O)O3)O2)O1 (stereo not drawn) [Monensin A, 2-phenethylurethane] | 187% | –
2 | CCC1(C2OC(C3OC(O)(COC(=O)Nc4ccc(Br)cc4)C(C)CC3C)CC2C)CCC(C2(C)CCC3(CC(O)C(C)C(C(C)C(OC)C(C)C(=O)O)O3)O2)O1 (stereo not drawn) [Monensin A, 4-bromophenylurethane, 4-bromophenylaminocarbonyloxy-(0-11)-monensin, sodium salt] | 165% | –
3 | COC(C(C)C(=O)O)C(C)C1OC2(CCC(C)(C3CCC(C)(C4OC(C5OC(O)(COC(=O)NCCc6ccccc6)C(C)CC5C)CC4C)O3)O2)CC(O)C1C (stereo not drawn) [Monensin B, 2-phenethylurethane] | – | 129% and 146%
4 | COC(C(C)C(=O)O)C(C)C1OC2(CCC(C)(C3CCC(C)(C4OC(C5OC(O)(COC(=O)NC(C)c6ccccc6)C(C)CC5C)CC4C)O3)O2)CC(O)C1C [Monensin B, (R)-1-phenethylurethane] | 167% | –
5 | CC[C@@]1([C@@H]2O[C@@H]([C@H]3O[C@@](O)(CO)[C@H](C)C[C@@H]3C)C[C@@H]2C)CC[C@H]([C@]2(C)CC[C@]3(C[C@H](O)[C@@H](C)[C@@H]([C@@H](C)[C@@H](OC)[C@H](C)C(=O)O)O3)O2)O1 [Monensin] | 162% and 165% | –
6 | CC[C@@H](C(=O)O)[C@@H]1O[C@@H]([C@@H](C)[C@H](O)[C@H](C)C(=O)[C@H](CC)[C@H]2O[C@]3(C=C[C@@H](O)[C@]4(CC[C@@](C)([C@H]5CC[C@](O)(CC)[C@H](C)O5)O4)O3)[C@H](C)C[C@@H]2C)[C@@H](C)C[C@@H]1C [Narasin, reference compound] | 166% | –
